Measured values reported in patent EP1038880B1, “Androstanes and pregnanes for allosteric modulation of GABA receptor” (priority 1994, dated 1995).

Experiments:
Glucocorticoid Receptors = molecular target: T1, Glucocorticoid Receptors (Rattus norvegicus, UniProt P06536); test: Inhibition of 3H-dexamethasone binding, brain cytosol; parameters: species or system rats; dose or concentration left out as unconfirmed; conditions: read-out: % of Inhibition
T1 construct: from tissue; host or cells: rat brain cytosol
T1 sequence (P06536 1-795): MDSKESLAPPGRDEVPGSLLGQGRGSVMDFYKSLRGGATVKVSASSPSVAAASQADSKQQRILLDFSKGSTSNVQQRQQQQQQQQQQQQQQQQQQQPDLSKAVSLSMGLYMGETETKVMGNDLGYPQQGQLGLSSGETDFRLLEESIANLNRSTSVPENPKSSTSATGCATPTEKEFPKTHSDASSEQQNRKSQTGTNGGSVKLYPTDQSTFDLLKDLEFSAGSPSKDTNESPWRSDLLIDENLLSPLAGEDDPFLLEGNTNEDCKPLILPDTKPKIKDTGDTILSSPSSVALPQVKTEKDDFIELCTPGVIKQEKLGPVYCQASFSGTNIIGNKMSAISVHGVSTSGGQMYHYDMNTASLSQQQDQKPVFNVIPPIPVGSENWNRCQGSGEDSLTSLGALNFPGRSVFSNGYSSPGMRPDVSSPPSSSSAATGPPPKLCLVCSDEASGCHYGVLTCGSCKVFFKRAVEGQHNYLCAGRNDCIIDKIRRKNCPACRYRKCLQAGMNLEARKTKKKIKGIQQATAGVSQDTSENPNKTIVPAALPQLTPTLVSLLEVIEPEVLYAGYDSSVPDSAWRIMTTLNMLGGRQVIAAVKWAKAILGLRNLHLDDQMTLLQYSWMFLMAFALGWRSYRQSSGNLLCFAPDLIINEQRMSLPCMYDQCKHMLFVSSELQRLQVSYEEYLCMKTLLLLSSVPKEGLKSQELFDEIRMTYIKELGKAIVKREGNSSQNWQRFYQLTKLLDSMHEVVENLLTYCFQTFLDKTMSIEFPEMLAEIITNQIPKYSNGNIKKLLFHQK

Sprague-Dawley rats = test: Geller-Seifter conflict test; type: in vivo; conditions: subcutaneous administration (Figure 10)

CC(=O)[C@H]1CC[C@H]2[C@@H]3CC[C@@H]4C[C@H](O)CC[C@]4(C)[C@H]3CC[C@]12C [5β-pregnan-3α-ol-20-one, 3α-OH-5β-pregnan-20-one, reference compound]
inhibition (Glucocorticoid Receptors): 5.9% | dose of peak effect on rate of punished responses (Sprague-Dawley rats): 2 mg/kg
